## Antibody variant affinities, Ab-14 heavy chain, assay B

Antigen: PDVDLGDISGINAS, a 14-residue peptide of the SARS-CoV-2 spike HR2 region.

The variants keep the light chain, the linker and the frameworks of Ab-14 (scFv order VH, three GGGGS repeats, VL).
VH: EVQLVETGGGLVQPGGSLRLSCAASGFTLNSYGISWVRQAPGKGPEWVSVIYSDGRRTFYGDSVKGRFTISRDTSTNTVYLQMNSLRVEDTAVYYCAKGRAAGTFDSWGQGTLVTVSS
VL: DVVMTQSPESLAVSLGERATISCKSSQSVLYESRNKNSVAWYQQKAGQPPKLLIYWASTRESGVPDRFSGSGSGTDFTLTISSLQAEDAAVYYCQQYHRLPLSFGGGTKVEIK

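The parent was found by panning a naive human phage display library on the peptide. This is the validation round: designs drawn from the data on random variants, tested in the same kind of assay. Their group label is 14H_En_HC (En: ensemble of fine-tuned language models; HC: hill climbing; a sequence that several methods proposed may carry one label only). AlphaSeq pools MATa yeast showing the antibodies with MATalpha yeast showing the peptide. Binding brings cells together so that they mate, and sequencing counts the barcode pairs among the diploids. Each replicate has its own calibration line, from reference interactions of the BCL2 family. The assay was run in six technical replicates.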

The parent's heavy chain CDRs are GFTLNSYGIS, VIYSDGRRTFYGDSVK, GRAAGTFDS; each variant's own CDRs replace them letter for letter.
Affinities are written as log10 Kd with Kd in nM; a lower number is a better binder.
A pair that was not seen in that replicate is written "n.d."; this usually means weak binding, but a binder can also be missed.
Empty control strains, which show no peptide, gave a signal in 1% of pairings with all heavy chain designs; the median was 2.08 and 95% of these signals were weaker than 0.84. No background was subtracted. For each scFv, signals with the empty controls are counted beside the result, with their mean in brackets.
The range of this assay differs from that of the first round, and the authors advise against merging the two.
In the paper, a design with two or fewer of six values counts as a poor binder.

| # | CDR-H1 | CDR-H2 | CDR-H3 | replicates, log10 nM | empty controls |
|---|---|---|---|---|---|
| 1 | GFDLNEYGIS | VIYADGSRTFYSDSVK | GNQAGTFDS | -0.69 -0.71 -1.08 -0.87 -0.66 -0.53 | 2 of 18 (1.77) |
| 2 | GFDLDEYGIS | VIYADGRRTAYADSVK | GEAAGTFDV | 0.12 -0.41 -0.03 -0.51 -0.30 -0.13 | 0 of 18 |
| 3 | GFDLNEYGIS | VIYADGMRTQYIDSVK | GNEAGTFDV | 0.06 -0.42 -0.46 -0.47 -0.45 -0.41 | 0 of 18 |
| 4 | GFDLNEYGIS | VIYADGRRTAYSDSVK | GEVAGTFVQ | -0.04 -0.26 -0.36 -0.18 -0.43 -0.13 | 1 of 18 (1.77) |
| 5 | GFDLNEYGIS | VIYADGRRTFYIDSVK | GAVAGTFDM | -0.26 -0.28 -0.68 -0.56 -0.54 -0.53 | 1 of 18 (2.13) |
| 6 | GFDLNEYGIS | VIYADGRRTFYSDSVK | GEAAGTFDQ | -1.27 -1.38 n.d. -0.70 -1.25 n.d. | 0 of 18 |
| 7 | GFDLNEYGIS | VIYADGRRTFYIDSVK | GNAAGTFDS | -0.82 -0.21 -0.11 -1.12 -0.58 -0.72 | 1 of 18 (1.81) |
| 8 | GFNLNEYGIS | VIYADGVRTFYADSVK | GQVAGTFDM | -0.47 -0.59 -0.68 -0.86 -0.62 -0.53 | 0 of 18 |
| 9 | GFDLNEYGIS | VIYADGQRTFYIDSVK | GEIAGTFNV | n.d. -1.18 -0.82 -0.82 -0.55 -1.28 | 0 of 18 |
| 10 | GFDLNEYGIS | VIYADGLRTSYADSVK | GQLAGTFDI | -0.72 -0.66 -0.64 -0.93 -0.79 -0.66 | 0 of 18 |
| 11 | GFDLNDYGIS | VIYADGMRTFYADSVK | GEYAGTFDI | 0.65 0.54 0.12 -0.16 0.93 0.22 | 0 of 18 |
| 12 | GFDLDEYGIS | VIYADGRRTFYADSVK | GTNAGTFDK | -0.26 -0.46 -0.64 -0.49 -0.71 -0.43 | 0 of 18 |
| 13 | GFDLNEYGIS | VIYADGRRTFYADSVK | GSEAGTFNL | -0.65 -0.92 -1.01 -1.21 -0.86 -0.80 | 0 of 18 |
| 14 | GFDLNEYGIS | VIYADGRRTFYSDSVK | GEVAGTFIQ | -0.10 0.10 -0.01 -0.42 0.00 0.08 | 1 of 18 (0.93) |
| 15 | GFSLDEYGIS | VIYADGRRTFYADSVK | GNLAGTFDS | -0.43 -0.58 -0.56 -0.70 -0.72 -0.56 | 1 of 18 (1.89) |
| 16 | GFDLNEYGIS | VIYADGRRTAYIDSVK | GHAAGTFDE | -0.46 0.36 0.68 -0.30 -0.82 -0.75 | 0 of 18 |
| 17 | GFDINEYGIS | VIYADGRRTFYTDSVK | GNNAGTFDV | 1.30 0.93 0.77 0.00 0.83 0.60 | 0 of 18 |
| 18 | GFSLDEYGIS | VIYADGRRTAYQDDVK | GNVAGTFDV | n.d. 0.30 -0.26 n.d. n.d. -0.30 | 0 of 18 |
| 19 | GFDLNEYGIS | VIYADGLRTFYTDSVK | GEQAGTFDV | -0.34 -0.97 -1.04 -0.47 -1.22 -1.07 | 0 of 18 |
| 20 | GFDLSEYGIS | VIYADGRRTFYTDSVK | GEIAGTFDE | -0.47 -0.47 -0.72 -0.62 -0.51 -0.53 | 0 of 18 |
| 21 | GFDLNEYGIS | VIYADGRRTFYTDSVK | GGNAGTFDI | -0.42 -0.70 -0.73 -0.82 -0.88 -0.71 | 1 of 18 (1.69) |
| 22 | GFDLDEYGIS | VIYADGRRTFYTDSVK | GNVAGTFDE | -0.68 -0.68 -0.90 -1.04 -0.99 -0.87 | 0 of 18 |
| 23 | GFDLNEYGIS | VIYADGRRTFYTDSVK | GAVAGTFDQ | -0.62 -0.54 -0.72 -0.57 -0.49 -0.43 | 0 of 18 |
| 24 | GFNLDEYGIS | VIYADGRRTFYADSVK | GNHGGTFDT | 2.78 1.00 1.02 1.18 1.28 1.38 | 0 of 18 |
| 25 | GFDLNEYGIS | VIYADGRRTFYADSVK | GQNAGTFTL | 0.34 0.30 0.10 0.11 -0.10 0.15 | 1 of 18 (1.80) |
| 26 | GFDLNEYGIS | VIYADGKRTAYSDSVK | GNAAGTFDV | 0.17 -0.28 -0.29 -0.28 -0.31 -0.20 | 0 of 18 |
| 27 | GFDLNEYGIS | VIYADGRRTFYVDSVK | GNVAGTFDV | -0.68 -0.78 -0.75 -0.71 -0.64 -0.27 | 1 of 18 (1.50) |
| 28 | GFDLNEYGIS | VIYADGRRTFYADSVK | GEIAGTFDV | -0.06 0.28 -0.43 -0.51 0.56 0.03 | 0 of 18 |
| 29 | GFDLNEYGIS | VIYADGRRTFYADSVK | GENAGTILV | n.d. n.d. n.d. n.d. n.d. n.d. | 0 of 18 |
| 30 | GFNLDEYGIS | VIYADGRRTFYQDSVK | GEVAGTFDT | -1.04 -0.99 -1.29 -1.33 -1.01 -1.29 | 0 of 18 |
| 31 | GFDLNEYGIS | VIYADGVRTFYSDSVK | GQTAGTFDA | -0.54 -0.33 -0.71 -0.92 -0.74 -0.50 | 0 of 18 |
| 32 | GFDLNEYGIS | VIYADGRRTFYSDSVK | GESAGTFDQ | 0.07 -0.30 -0.27 -0.37 -0.23 -0.05 | 0 of 18 |
| 33 | GFDLNEYGIS | VIYADGKRTFYDDSVK | GQLAGTFDL | -0.17 -0.28 -0.41 -0.41 -0.50 -0.15 | 1 of 18 (2.93) |
| 34 | GFDLDEYGIS | VIYADGRRTFYSDSVK | GENAGTFDV | -0.09 -0.35 -0.07 -0.61 0.22 -0.55 | 0 of 18 |

The opening 3 entries, copied out:

| CDR-H1 | CDR-H2 | CDR-H3 | replicates, log10 nM | empty controls |
|---|---|---|---|---|
| GFDLNEYGIS | VIYADGSRTFYSDSVK | GNQAGTFDS | -0.69 -0.71 -1.08 -0.87 -0.66 -0.53 | 2 of 18 (1.77) |
| GFDLDEYGIS | VIYADGRRTAYADSVK | GEAAGTFDV | 0.12 -0.41 -0.03 -0.51 -0.30 -0.13 | 0 of 18 |
| GFDLNEYGIS | VIYADGMRTQYIDSVK | GNEAGTFDV | 0.06 -0.42 -0.46 -0.47 -0.45 -0.41 | 0 of 18 |

The measurements come from Li et al. 2023 (doi:10.1038/s41467-023-39022-2) through the FLAb antibody collection.